The results in this text go back to publication PMC7750258 (Progress in neuro-psychopharmacology & biological psychiatry, 2020).

Sequences of proteins named here, by UniProt entry; tags and fusion partners are left off.
UniProt P47746, whole entry: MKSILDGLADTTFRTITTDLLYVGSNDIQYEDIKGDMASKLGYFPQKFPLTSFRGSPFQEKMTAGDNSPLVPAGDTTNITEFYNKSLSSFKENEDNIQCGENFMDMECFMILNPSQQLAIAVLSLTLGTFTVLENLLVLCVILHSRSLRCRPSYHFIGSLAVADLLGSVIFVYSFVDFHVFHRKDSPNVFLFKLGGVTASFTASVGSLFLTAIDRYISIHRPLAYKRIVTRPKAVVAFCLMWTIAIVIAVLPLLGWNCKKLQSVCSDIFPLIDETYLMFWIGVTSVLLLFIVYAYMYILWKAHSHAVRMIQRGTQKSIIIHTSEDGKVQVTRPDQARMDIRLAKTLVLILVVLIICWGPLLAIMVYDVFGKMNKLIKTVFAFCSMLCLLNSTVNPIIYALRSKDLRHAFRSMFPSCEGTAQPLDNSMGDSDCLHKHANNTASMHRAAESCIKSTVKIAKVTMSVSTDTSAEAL

For this assay, the target named is CB1 receptor (Mus musculus, UniProt P47746). The assay is described as follows: [3H]CP55,940 displacement binding in mouse cerebellar membranes. Set-up: species or system ICR mice. As to conditions: read-out: CB1 Binding Affinity (Ki in nM); male mice, cerebellum; N = 4 / value.

The Ki is the dissociation constant of the complex between target and ligand, obtained from inhibition or displacement. Consider `CCCCCc1cc(O)c2c(c1)OC(C)(C)[C@@H]1CCC(C)=C[C@@H]21` [THC, Δ^9-tetrahydrocanabinol], for which the Ki stood at 41.3 nM.
